Target: T1, anti-HER2 human antibody (Herceptin), acid-treated
T1 construct: Same antibody as m38 after acid treatment and neutralisation; also called acid-treated anti-HER2 human IgG; acid-denatured anti-HER2 human IgG
Assay: SPR, peptides on sensor chips, antibody 250 nM; acid treatment pH 1.5, 20 C, 10 min; reference Fc-III peptide
Procedure: For this SPR analysis, human IgG samples were prepared via acid treatment under various conditions as described below and then tested. […] Subsequently, 30 μl (or 20 μl for a sample to which glycine-HCl with pH 2.7 had been added) of 1 M Tris-HCl (pH 8.7) was added to each solution for neutralization.

B1: synthetic peptide IMGpep-4K6R (peptide)
peptide: GCTGYWPRAWGLCG
modifications: N-terminal amino group biotinylated (biotin-spacer, Sulfo-NHS-LC-Biotin); disulfide bond between the two Cys
notes: also called biotinylated IMGpep-4K6R
  generation rate of acid-denatured IgG (ratio a/b of the SPR response on the IMGpep-4K6R chip to that on the Fc-III chip): 12.8%

From US20100297606A1 (KAGOSHIMA UNIVERSITY, published 2010)
